scFv variants of Ab-14 (light chain) against a SARS-CoV-2 spike peptide

Data: MIT Lincoln Laboratory AlphaSeq set, Li et al. 2023, doi:10.1038/s41467-023-39022-2, as distributed in FLAb.

Target peptide (SARS-CoV-2 spike, HR2 region): PDVDLGDISGINAS

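The parent was found by panning a naive human phage display library on the peptide. This is the validation round: designs drawn from the data on random variants, tested in the same kind of assay. Several design methods are mixed in this list. AlphaSeq pools MATa yeast showing the antibodies with MATalpha yeast showing the peptide. The frequency of each diploid, read from paired DNA barcodes, reflects how well the two displayed proteins bind. Read counts were normalised to the haploid input and turned into Kd by a linear fit to BCL2-family pairs of known affinity, for each replicate. Each pool was mated in six replicate cultures.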

Parent scFv Ab-14: VH joined to VL by the linker GGGGSGGGGSGGGGS. Changes lie in the light chain CDRs alone.
VH: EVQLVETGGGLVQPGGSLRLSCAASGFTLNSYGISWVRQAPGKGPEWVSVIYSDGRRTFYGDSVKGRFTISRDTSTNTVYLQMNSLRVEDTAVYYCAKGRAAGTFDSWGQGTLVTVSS
VL: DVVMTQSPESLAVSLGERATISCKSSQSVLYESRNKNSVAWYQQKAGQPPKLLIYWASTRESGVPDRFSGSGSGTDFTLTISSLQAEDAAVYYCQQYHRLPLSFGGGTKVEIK

Variants are written as CDR1, CDR2 and CDR3 of the light chain (limits as in the source). Parent: KSSQSVLYESRNKNSVA, WASTRES, QQYHRLPLS. Each Kd is an estimate from the mating assay, the geometric mean of the replicates in which the pair was seen; lower is stronger. Where no diploid with the target was found in any replicate, the entry reads "nd": below detection, most likely a poor binder, though not proof of it. The authors' rule: three or more of the six replicates give a measured affinity, fewer mean a poor binder.

KLQQSTLYESRNKNSVA | NASTRLS | QQYHRLPLS: 710 pM (6 of 6 replicates).
KMSQSYLYESRNKNSVA | EASTRES | QQYHRLPLS: 1.6 nM (6 of 6 replicates).
KLQTSWGYEKRNKNSVA | QASQRES | QQYHRLPLS: 15 nM (6 of 6 replicates).
KLRQVTGWESYNKNSVA | QTSTRAS | QDYHRLPLS: 13 nM (6 of 6 replicates).
KSSQDVEEESTNKNSVA | DASTRES | QQYHRLPLS: 3.5 nM (6 of 6 replicates).
KSSQSILPESRNKNSVA | WASTRES | QQYHRLPLS: 46 nM (2 of 6 replicates).
KSSQSVLYETRNKNSVA | EASTRES | QQYHRLPLS: 2.3 nM (6 of 6 replicates).
RVSSNLMAGEIHYNNIA | NTKVLEY | QQYMRLPLG: 620 pM (6 of 6 replicates).
KLSQSHLYESRNKNSVA | QASTREV | QQYHRLPLS: 1.3 nM (6 of 6 replicates).
KLEQSWLYESRNKNNVA | NASTRES | QQYHRLPLS: 830 pM (6 of 6 replicates).
KISQSNLYESRNKNSIA | NANTRES | QQYHRLPLS: 580 pM (6 of 6 replicates).
MFSQGVMVGWLTRNSVA | NSSTRED | QQYHRLPLS: 7.1 nM (6 of 6 replicates).
KLEQGVLYESRNKNSVA | GASTRES | QQYHRLPLS: 1.3 nM (6 of 6 replicates).
KSSGSVLADSRNCNSVA | WALTRES | QQYHRLPLS: nd (0 of 6 replicates).
RLSQTEEMDIRDYNAVA | NGSTVNT | QHYSRLPIS: 390 nM (1 of 6 replicates).
KSSQKVLYEERNKNSVA | WASTRES | QQYSRLPLS: 24 nM (6 of 6 replicates).
KLSTSVLYESRMANAVA | AASTREE | QQYHRLPLS: 240 pM (6 of 6 replicates).
KLSMVTGHLSMAKNNVA | EMETREK | QQYNRLPLS: 1.6 nM (6 of 6 replicates).
KIAEGHFEYMHHGNHVA | EVSCRAY | QQYAHLPLV: 11 nM (6 of 6 replicates).
KSSNSVLGESRNKNSVA | EASTRED | QQYHRLPLS: 2.8 nM (6 of 6 replicates).
KSSQSVLAESRNKNSVA | WASTRES | QQYMRLTLS: nd (0 of 6 replicates).
KVFPSELGESRNKMSVA | DASTRES | QQYHRLPLS: 1.4 nM (6 of 6 replicates).
RMSVFMLTDENVWYSIA | NSAAVRI | QQYQRLPLS: nd (0 of 6 replicates).
MMSQVTGLGTRHRNNVA | QTSTREP | QQYDRLPLI: 5.5 nM (6 of 6 replicates).
KLMQSQLYESRMKNSVA | NASTRES | QQYHRLPLS: 1.1 nM (6 of 6 replicates).
KVMQSELYESRNKNSVA | NASTRES | QQYHRLPLS: 1.2 nM (6 of 6 replicates).

Further variants, results first:

nd (0 of 6 replicates): KSSQSFLYESKNLNSVA | WASTRES | QQYHRLPLS.
15 nM (6 of 6 replicates): HISYSMAHLSKNKNSVA | NQQTRES | QQYHHLPLS.
12 nM (6 of 6 replicates): KVSQSTLYESRNKNSVA | WASTRES | QQYHRLPLS.
4.6 nM (6 of 6 replicates): KSSLSVLFESRNKNSVA | DASTRSS | QQYHRLPLS.
13 nM (6 of 6 replicates): MISQLYNMGSFAINSVA | QASIRNS | QQYDRLPLI.
2.0 nM (6 of 6 replicates): KIYAATMLESHDKNSIA | DLNTRGN | QQYHRLPLS.
910 pM (6 of 6 replicates): KLPQSELYESRNKNSVA | GASTRES | QQYHRLPLS.
780 pM (6 of 6 replicates): KLSQSKLYESRNKNNVA | EASTRES | QQYHRLPLS.
1.4 nM (6 of 6 replicates): ALSQSMDMTSRNKNSVA | DLSTRVN | QQYHRLPLS.
560 nM (1 of 6 replicates): HVANYPENFRSAKDNIA | DDSATTS | QQYDRLPLA.
45 nM (6 of 6 replicates): MISQLFMYGYRNYNSIA | QAETREK | QQYDRLPLE.
490 pM (6 of 6 replicates): KSLQSDLYESRNKNSVA | HASTRED | QQYHQLPLS.
400 pM (6 of 6 replicates): KLPQSELYESRNKNSVA | EASTREV | QQYHRLPLS.
420 nM (5 of 6 replicates): QLEQLVFPMGKDWHSIA | NATTLLA | QQYYYLPLM.
56 nM (6 of 6 replicates): IFSQSALMGNMTRNSVA | QASTRFN | QQYHRLPLI.
4.6 nM (6 of 6 replicates): MISDLTMYGSRNKNSVA | DLSHRGS | QQYHRLPLS.
1.6 nM (6 of 6 replicates): HSSQSFLYESRNKNSVA | GASTRES | QQYHRLPLS.
39 nM (6 of 6 replicates): QINMEMNHDLDDEQNVA | DAMTEVK | QQYNRLPLS.
450 pM (6 of 6 replicates): KSSQEYLYESRNKNSVA | GASTRES | QQYHRLPLS.
3.9 nM (6 of 6 replicates): KLSGSMLYESRNKNSVA | NASTRMS | QQYHRLPLS.
2.2 nM (6 of 6 replicates): KLYSAKQGDIAQNQNVA | AADVLTH | QQYNKLPLS.
2.4 nM (6 of 6 replicates): KLSQSVLYEMRNKNSVA | NASTRMS | QQYHRLPLS.
350 pM (6 of 6 replicates): KQSESVLQESRNKNSVA | DASTRES | QQYHRLPLS.
3.8 nM (6 of 6 replicates): KSSQSVLYEGRNKNGVA | DASTRES | QQYHRLPLS.
nd (0 of 6 replicates): KSSQSVLYESRNKNSEA | AASTRES | QQYPRLPLS.
1.9 nM (6 of 6 replicates): KSSQSVKFESRNKNSVA | DASTRCS | QQYHRLPLS.

Empty control strains, which show no peptide, gave a signal in 4% of pairings with all light chain designs; the median was 430 nM and 95% of these signals were weaker than 38 nM. No background was subtracted. Values of this round are not directly comparable with the first-round values of the same sequences. The parent sequence was in this pool as ten entries: three were never detected, three once, and four in most replicates, with averages from 2.2 nM to 240 nM.